Laboratory results as given in paper PMC5979480, “Glucose-Dependent Insulinotropic Polypeptide Mitigates 6-OHDA-Induced Behavioral Impairments in Parkinsonian Rats” (International Journal of Molecular Sciences, 2018).

Tests used:
[1] = 15 nmol/kg/day GIP n = 11, saline n = 12; 6-OHDA lesioned rats; p = 0.419
[2] = overnight (12 h) fast, tail vein blood, glucometer; n = 3/group
DPP-4 = details: in circulation, rapid hydrolysis by DPP-4; cited from earlier work

In the case of CC[C@H](C)[C@H](NC(=O)[C@H](CO)NC(=O)[C@H](Cc1ccc(O)cc1)NC(=O)[C@H](CC(=O)O)NC(=O)[C@H](CO)NC(=O)[C@@H](NC(=O)[C@H](Cc1ccccc1)NC(=O)[C@@H](NC(=O)CNC(=O)[C@H](CCC(=O)O)NC(=O)[C@H](C)NC(=O)[C@@H](N)Cc1ccc(O)cc1)[C@@H](C)O)[C@@H](C)CC)C(=O)N[C@@H](C)C(=O)N[C@@H](CCSC)C(=O)N[C@@H](CC(=O)O)C(=O)N[C@@H](CCCCN)C(=O)N[C@H](C(=O)N[C@@H](Cc1c[nH]cn1)C(=O)N[C@@H](CCC(N)=O)C(=O)N[C@@H](CCC(N)=O)C(=O)N[C@@H](CC(=O)O)C(=O)N[C@@H](Cc1ccccc1)C(=O)N[C@H](C(=O)N[C@@H](CC(N)=O)C(=O)N[C@@H](Cc1c[nH]c2ccccc12)C(=O)N[C@@H](CC(C)C)C(=O)N[C@@H](CC(C)C)C(=O)N[C@@H](C)C(=O)N[C@@H](CCC(N)=O)C(=O)N[C@@H](CCCCN)C(=O)NCC(=O)N[C@@H](CCCCN)C(=O)N[C@@H](CCCCN)C(=O)N[C@@H](CC(N)=O)C(=O)N[C@@H](CC(=O)O)C(=O)N[C@@H](Cc1c[nH]c2ccccc12)C(=O)N[C@@H](CCCCN)C(=O)N[C@@H](Cc1c[nH]cn1)C(=O)N[C@@H](CC(N)=O)C(=O)N[C@H](C(=O)N[C@H](C(=O)N[C@@H](CCC(N)=O)C(=O)O)[C@@H](C)O)[C@@H](C)CC)C(C)C)[C@@H](C)CC [GIP, glucose-dependent insulinotropic polypeptide], the “Body weight, GIP vs saline” value [1] is listed as “did not differ”, the “Fasting blood glucose during GIP treatment” value [2] is listed as “no change” and the “Half-life of active GIP” value (DPP-4) is listed as “approximately 7 min”.
